{"source": "patent US20260232668A1", "about": "(Kadmon Corporation, LLC, priority 2023, published 2026)", "system": "B cells (CD20+) in human whole blood", "experiment": "anti-CD79b-mediated B-cell activation in human whole blood (CD69 on CD20+ B cells, flow cytometry)", "format": "cell-based", "settings": "10 μM compound, anti-CD79b stimulation, anti-CD79b alone 73.4%", "data": [{"compound": "CC(C)(C=C(C#N)C(=O)N1CCC[C@@H](n2nc(-c3ccc(Oc4ccccc4)cc3F)c3c(N)ncnc32)C1)N1CCN(C2COC2)CC1", "note": "[rilzabrutinib, (R)-2-[3-[4-amino-3-(2-fluoro-4-phenoxy-phenyl)pyrazolo[3,4-d]pyrimidin-1-yl]piperidine-1-carbonyl]-4-methyl-4-[4-(oxetan-3-yl)piperazin-1-yl]pent-2-enenitrile]", "values": [{"measurement": "activated B cells (CD69 positive)", "value": 8.03, "unit": "%"}]}]}
